Laboratory results published in patent publication US12122780B2, “Pyrimidinyl group-containing tricyclic compound serving as c-Met inhibitor” (JIANGSU AOSAIKANG PHARMACEUTICAL CO., LTD., priority 2019, dated 2024).
Where two headings read alike, the source gives them in different places.

Test system: EBC-1 cells
Assay: EBC-1 cell proliferation experiment (CellTiter-Glo)
Conditions: read-out: EBC-1 cell proliferation activity IC50, 3 days
Procedure: MEM medium, fetal bovine serum, penicillin/streptomycin antibiotics were purchased from Wisent. EBC-1 cell line was purchased from Nanjing COBIO Bioscience Co., LTD. Envision multi-label analyzer (PerkinElmer).
EBC-1 cells were seeded in a white 96-well plate, […] cell suspension per well, which contained 3000 EBC-1 cells. The cell plate was placed in a carbon dioxide incubator for overnight culture.
The compound to be tested was diluted 5-fold to the eighth concentration with a discharge gun, i.e., from 2 mM to […], and double duplicate wells experiment was set. 78 μL of the medium was added to the middle plate, then 2 μL per well of gradient diluted compound was transferred to the corresponding position on the middle plate, then mixed well and 20 μL per well was transferred to the cell plate. The cell plate was cultured in a carbon dioxide incubator for 3 days. Another cell plate was prepared and the signal values were read on the day of dosing as […] to be used in the data analysis. 25 μL of Promega CellTiter-Glo was added to each well of this cell plate, and incubated at room temperature for 10 minutes to stabilize the luminescence signal. Readings were taken using a PerkinElmer Envision multi-label analyzer.
25 μL of Promega CellTiter-Glo reagent was added to each well of this cell plate, and incubated at room temperature for 10 minutes to stabilize the luminescence signal. Readings were taken using a PerkinElmer Envision multi-label analyzer.
Using the equation (Sample-Min)/(Max-Min)*100% to convert the original data to the inhibition rate, the IC50 value can be obtained by curve fitting with four parameters (obtained by “log(inhibitor) vs. response in GraphPad Prism—Variable slope mode).

Row | Structure (SMILES) | IC50 | IC50 (tested form: HCl)
1 | CC(c1cccc(-c2ncc(OCC3CCN(C)CC3)cn2)c1)n1c(=O)ccn2c3cc(C#N)ccc3nc12 (single isomer, unassigned) | 0.074 µM | 0.0109 µM
2 | CC(c1cccc(-c2ncc(OCC3CCN(C)CC3)cn2)c1)n1c2c(ccc1=O)-c1cc(C#N)ccc1C2=O (single isomer, unassigned) | – | 0.014 µM
